Binding of CDR-mutated scFvs to a peptide of the spike HR2 region

Values reported by Li et al. 2023, doi:10.1038/s41467-023-39022-2 (FLAb copy).

The target is the same throughout: PDVDLGDISGINAS, from the HR2 region of SARS-CoV-2 spike.

The variants keep the light chain, the linker and the frameworks of Ab-14 (scFv order VH, a 15-residue (Gly4Ser)3 linker, VL).
VH: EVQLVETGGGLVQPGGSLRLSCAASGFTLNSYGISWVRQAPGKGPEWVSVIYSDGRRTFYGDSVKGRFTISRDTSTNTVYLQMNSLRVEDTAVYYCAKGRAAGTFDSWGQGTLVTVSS
VL: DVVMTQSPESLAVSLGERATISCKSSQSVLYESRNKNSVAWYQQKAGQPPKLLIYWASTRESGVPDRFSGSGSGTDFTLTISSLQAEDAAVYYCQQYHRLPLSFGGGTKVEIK

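These sequences belong to a second round, designed from the earlier measurements on random variants of the parent. Their group label is 14H_En_HC (En: ensemble of fine-tuned language models; HC: hill climbing; a sequence that several methods proposed may carry one label only). The scFvs were displayed on barcoded MATa yeast, the peptide on MATalpha yeast. After mating in shaken culture at 30 °C for 16 h, diploids were selected and their barcode pairs sequenced. A regression on co-assayed BCL2-family reference pairs converts the normalised counts of each replicate to an apparent Kd. The assay was run in six technical replicates.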

Variants are written as CDR1, CDR2 and CDR3 of the heavy chain (limits as in the source). Parent: GFTLNSYGIS, VIYSDGRRTFYGDSVK, GRAAGTFDS. Scale: log10 of Kd in nM, estimated from mating counts; low values are strong binders. Replicates are averaged; those with no signal do not enter the mean. An entry "n.d." has no value in the source: the pair was not observed among the diploids in that replicate. This suggests poor binding but is not conclusive. The range of this assay differs from that of the first round, and the authors advise against merging the two. Nonspecific signal, from three strains lacking the peptide, appeared in 1% of pairings of all heavy chain designs, centred on 2.08 (5% of these signals below 0.84); values are not corrected for it. The control count says in how many pairings with the empty strains this scFv gave a signal, with their mean in brackets. The authors averaged sequences with at least three values out of six and counted those with two or fewer as poor binders. The parent sequence was in this pool as ten entries: three were never detected, three once, and four in most replicates, with averages from 0.34 to 2.37.

| # | CDR-H1 | CDR-H2 | CDR-H3 | log10 Kd (nM) by replicate | log10 Kd (nM), mean | empty controls |
|---|---|---|---|---|---|---|
| 1 | GFDLDEYGIS | VIYADGRRTFYADSVK | GEIAGTFDV | -0.14 -0.92 -0.42 -0.25 -1.56 -0.73 | -0.67 | 0 of 18 |
| 2 | GFDLNEYGIS | VIYADGMRTFYTDSVK | GETAGTFIN | 1.16 -0.03 0.03 -0.20 -0.57 0.33 | 0.12 | 0 of 18 |
| 3 | GFNLDEYGIS | VIYADGKRTFYADSVK | GSHAGTFDT | -0.19 -0.54 -0.12 -0.79 -0.53 -0.05 | -0.37 | 1 of 18 (1.41) |
| 4 | GFDLNEYGIS | VIYADGMRTFYTDSVK | GANAGTFDV | -0.49 -0.58 -0.95 -0.90 0.64 -0.70 | -0.50 | 0 of 18 |
| 5 | GFDLNEYGIS | VIYADGRRTFYADSVK | GNAAGTFVV | 1.55 1.99 0.02 0.28 1.00 0.70 | 0.92 | 1 of 18 (1.30) |
| 6 | GFDLNEYGIS | VIYADGRRTFYADSVK | GQVAGIFNV | 0.18 -0.07 0.48 0.48 -0.07 0.39 | 0.23 | 0 of 18 |
| 7 | GFDLNEYGIS | VIYADGRRTAYTDSVK | GHAAGTFVL | 1.34 0.52 0.30 1.11 0.44 0.72 | 0.74 | 0 of 18 |
| 8 | GFDLNEYGIS | VIYADGRRTFYADSVK | GEAAGTFFM | n.d. 1.84 1.22 2.13 1.68 2.30 | 1.83 | 1 of 18 (1.13) |
| 9 | GFDLDEYGIS | VIYADGRRTFYADSVK | GETAGTFLS | -0.62 -0.73 -0.55 -0.53 -0.97 -0.49 | -0.65 | 0 of 18 |
| 10 | GFDLNEYGIS | VIYADGRRTFYADSVK | GEFAGTFDM | -0.30 -0.35 -0.48 -0.57 -0.20 -0.26 | -0.36 | 1 of 18 (2.43) |
| 11 | GFSLDEYGIS | VIYADGRRTFYADSVK | GNQAGTFDS | -0.28 -0.58 -0.74 -0.55 -0.61 -0.51 | -0.54 | 0 of 18 |
| 12 | GFDLESYGIS | VIYADGKRTFYSDSVK | GENAGTFDI | -0.46 -0.35 -0.41 -0.64 -0.53 -0.11 | -0.42 | 0 of 18 |
| 13 | GFDLNEYGIS | VIYADGQRTFYADSVK | GNTAGTFLS | -0.30 -0.29 -0.59 -0.81 -0.65 -0.42 | -0.51 | 1 of 18 (2.51) |
| 14 | GFDLNEYGIS | VIYADGRRTFYQDSVK | GQIAGTFDQ | 0.14 -0.13 -0.31 -0.55 -0.54 -0.34 | -0.29 | 0 of 18 |
| 15 | GFDLNEYGIS | VIYADGMRTQYIDSVK | GNAAGTFDQ | -0.56 0.46 -0.47 0.80 -0.21 0.15 | 0.03 | 0 of 18 |
| 16 | GFDLDEYGIS | VIYADGRRTFYIDSVK | GEVAGTFDS | -0.27 2.09 -0.55 0.11 -0.25 0.13 | 0.21 | 0 of 18 |
| 17 | GFDLNEYGIS | VIYADGSRTFYADSVK | GEVAGTFDI | -0.30 0.14 -0.52 -0.40 -0.20 0.02 | -0.21 | 0 of 18 |
| 18 | GFDLNEYGIS | VIYADGARTFYTDSVK | GEVAGTFDS | -0.59 -0.01 0.12 -0.59 -0.49 0.17 | -0.23 | 0 of 18 |
| 19 | GFDLNEYGIS | VIYADGMRTQYIDSVK | GNAAGTFDL | -0.25 0.21 -0.28 -0.47 -0.30 0.19 | -0.15 | 0 of 18 |
| 20 | GFDLNEYGIS | VIYADGRRTFYADSVK | GKNAGTFTV | n.d. n.d. n.d. n.d. n.d. n.d. | n.d. | 0 of 18 |
| 21 | GFDLNEYGIS | VIYADGRRTAYADSVK | GEIAGTFKF | -0.94 -0.41 -0.34 -0.75 -0.80 -0.42 | -0.61 | 0 of 18 |
| 22 | GFDLNEYGIS | VIYADGRRKFYADKVK | GETAGTFNV | -0.28 -0.38 -0.43 -0.18 -0.33 -0.09 | -0.28 | 0 of 18 |
| 23 | GFDLNEYGIS | VIYADGSRTFYADSVK | GEIAGSFDQ | -0.48 -0.93 -0.19 -0.38 -0.27 0.88 | -0.23 | 1 of 18 (-0.21) |
| 24 | GFDLNEYGIS | VIYADGRRTFYTDSVK | GANAGTFDF | -0.38 -0.38 -0.45 -0.68 -0.52 -0.45 | -0.48 | 0 of 18 |
| 25 | GFDIDEYGIS | VIYADGRRTFYADSVK | GENAGTFDV | 0.28 -0.24 -0.21 -0.62 -0.73 -0.33 | -0.31 | 0 of 18 |
| 26 | GFDLNEYGIS | VIYADGVRTFYSDSVK | GTNGGTFDM | 0.61 0.16 0.48 0.18 0.01 0.48 | 0.32 | 0 of 18 |
| 27 | GFNLDEYGIS | VIYADGRRTFYQDSVK | GEVAGTFDS | -0.19 -0.44 -0.44 -0.69 -0.51 -0.16 | -0.40 | 0 of 18 |
| 28 | GFDINEYGIS | VIYADGVRTFYADSVK | GNQAGTFDL | -0.23 -0.28 -0.06 -0.56 n.d. n.d. | -0.28 | 0 of 18 |
| 29 | GFDLNEYGIS | VIYADGQRTAYADSVK | GKVAGTFDM | -0.41 -0.68 -1.11 -1.04 -0.72 -0.58 | -0.76 | 0 of 18 |
| 30 | GFDLNEYGIS | VIYADGRRTFYADSVK | GNVGGTFDV | 0.17 0.03 -0.31 -0.62 -0.49 0.20 | -0.17 | 1 of 18 (1.28) |
| 31 | GFDLNEYGIS | VIYADGRRTFYQDSVK | GQAAGTFDQ | -0.24 -0.52 -0.33 -0.31 -0.42 -0.23 | -0.34 | 0 of 18 |
| 32 | GFDLNEYGIS | VIYADGRRTQYIDSVK | GEVAGTFDQ | 0.24 1.35 0.02 n.d. 0.10 0.41 | 0.42 | 0 of 18 |
| 33 | GFDLNEYGIS | VIYADGRRTAYADSVK | GNTAGTFDS | 0.16 -0.28 -0.31 -0.22 0.03 0.14 | -0.08 | 0 of 18 |
| 34 | GFDLESYGIS | VIYADGMRTAYADSVK | GNVAGTFDS | -0.53 -0.78 -0.64 -0.91 -0.89 -0.20 | -0.66 | 0 of 18 |
| 35 | GFDLNEYGIS | VIYADGKRTFYSDSVK | GNNAGTFDV | -0.06 -0.21 -0.18 -0.33 -0.25 -0.11 | -0.19 | 1 of 18 (2.30) |
| 36 | GFDLNEYGIS | VIYADGMRTFYTDSVK | GESAGTFDS | -0.34 -0.10 -0.34 -0.47 -0.25 -0.37 | -0.31 | 0 of 18 |
| 37 | GFDLESYGIS | VIYADGRRTFYADKVK | GENAGTFDV | -0.04 0.29 -0.69 -0.51 -0.56 -0.40 | -0.32 | 1 of 18 (1.79) |
| 38 | GFDLNEYGIS | VIYADGMRTFYSDSVK | GNVAGTFDK | -0.14 -1.04 -1.14 -1.42 -1.55 -0.90 | -1.03 | 0 of 18 |
| 39 | GFGLDEYGIS | VIYADGRRTFYADSVK | GENAGTFFM | n.d. n.d. n.d. n.d. n.d. n.d. | n.d. | 0 of 18 |
| 40 | GFDLNEYGIS | VIYADGRRTFYADSVK | GEAGGTFDI | -0.54 0.06 0.46 -0.73 -0.52 0.21 | -0.18 | 1 of 18 (1.23) |
| 41 | GFDINEYGIS | VIYADGRRTFYADSVK | GNVAGTFDL | -0.73 0.04 -0.34 -0.66 -0.49 -0.21 | -0.40 | 0 of 18 |
| 42 | GFDLNEYGIS | VIYADGMRTFYADSVK | GEYAGTFDI | 0.11 -0.12 -0.43 0.33 -0.15 0.11 | -0.03 | 0 of 18 |
| 43 | GFDLNEYGIS | VIYADGRRTFYSDSVK | GEAAGTFVL | -0.08 1.15 -0.43 -0.42 -0.55 -0.27 | -0.10 | 0 of 18 |
| 44 | GFDLNEYGIS | VIYADGRRTFYADSVK | GNAAGTFDT | -0.14 -0.43 -0.44 -0.50 -0.46 -0.03 | -0.33 | 0 of 18 |
| 45 | GFDINEYGIS | VIYADGRRTQYADSVK | GEAAGTFDQ | 0.36 0.50 0.17 0.38 0.47 0.85 | 0.45 | 0 of 18 |

The opening 7 entries, copied out:

| CDR-H1 | CDR-H2 | CDR-H3 | log10 Kd (nM) by replicate | log10 Kd (nM), mean | empty controls |
|---|---|---|---|---|---|
| GFDLDEYGIS | VIYADGRRTFYADSVK | GEIAGTFDV | -0.14 -0.92 -0.42 -0.25 -1.56 -0.73 | -0.67 | 0 of 18 |
| GFDLNEYGIS | VIYADGMRTFYTDSVK | GETAGTFIN | 1.16 -0.03 0.03 -0.20 -0.57 0.33 | 0.12 | 0 of 18 |
| GFNLDEYGIS | VIYADGKRTFYADSVK | GSHAGTFDT | -0.19 -0.54 -0.12 -0.79 -0.53 -0.05 | -0.37 | 1 of 18 (1.41) |
| GFDLNEYGIS | VIYADGMRTFYTDSVK | GANAGTFDV | -0.49 -0.58 -0.95 -0.90 0.64 -0.70 | -0.50 | 0 of 18 |
| GFDLNEYGIS | VIYADGRRTFYADSVK | GNAAGTFVV | 1.55 1.99 0.02 0.28 1.00 0.70 | 0.92 | 1 of 18 (1.30) |
| GFDLNEYGIS | VIYADGRRTFYADSVK | GQVAGIFNV | 0.18 -0.07 0.48 0.48 -0.07 0.39 | 0.23 | 0 of 18 |
| GFDLNEYGIS | VIYADGRRTAYTDSVK | GHAAGTFVL | 1.34 0.52 0.30 1.11 0.44 0.72 | 0.74 | 0 of 18 |